{"source": "paper PMC10510381", "about": "“Alkyne as a Latent Warhead to Covalently Target SARS-CoV-2 Main Protease” (Journal of Medicinal Chemistry, 2023)", "system": "SARS-CoV-2", "assay_type": "cell-based"}
{"smiles": "C#C[C@H](C[C@@H]1CCNC1=O)NC(=O)[C@@H]1[C@@H]2[C@H](CN1C(=O)[C@@H](NC(=O)C(F)(F)F)C(C)(C)C)C2(C)C", "note": "[Compound 4d, O=C1NCC[C@H]1C[C@@H](C#C)NC([C@H]2N(C([C@@H](NC(C(F)(F)F)=O)C(C)(C)C)=O)C[C@H]3[C@@H]2C3(C)C)=O]", "values": [{"measurement": "antiviral activity", "value": "strong, dose-dependent antiviral activity"}, {"measurement": "inhibition of SARS-CoV-2 infection", "value": "nearly complete inhibition"}]}
